Data reported in publication PMC9709720, “An orally available small molecule that targets soluble TNF to deliver anti-TNF biologic-like efficacy in rheumatoid arthritis” (Frontiers in Pharmacology, 2022).
Marks after values point to notes of the source that are not given here.

By UniProt entry, the sequences of proteins in these tests, tags left out. Where a name states a change or a piece, a line headed by the entry shows the natural chain unless it says otherwise. Chains listed by the source or under a name are the forms on record and can include a tag or linker. Residues count along the entry.
UniProt P01375, 77-233 limits assumed: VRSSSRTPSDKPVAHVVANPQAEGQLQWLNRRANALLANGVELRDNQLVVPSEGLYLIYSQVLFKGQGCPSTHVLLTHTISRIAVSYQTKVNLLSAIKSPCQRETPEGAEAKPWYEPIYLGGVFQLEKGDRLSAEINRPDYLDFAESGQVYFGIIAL
UniProt P01375, with tags, fused parts or gaps DEL77-88: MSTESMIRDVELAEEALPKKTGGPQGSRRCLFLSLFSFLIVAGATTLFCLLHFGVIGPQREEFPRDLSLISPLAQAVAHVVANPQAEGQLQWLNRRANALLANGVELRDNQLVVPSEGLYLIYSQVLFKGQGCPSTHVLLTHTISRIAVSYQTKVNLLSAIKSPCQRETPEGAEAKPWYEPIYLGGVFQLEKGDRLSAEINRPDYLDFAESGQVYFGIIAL

Columns and labels:
In vivo PK in dog = settings: male; for Bioavailability: i.v. and p.o. exposure from different studies
human hepatocytes = assay: In vitro metabolic clearance in suspended human hepatocytes
[1] = In vivo PK in cynomolgus monkey; settings: Cyno, male; for Bioavailability: i.v. and p.o. exposure from different studies
[2] = system: TNF (zymosan-activated CD11b expression on granulocytes in human whole blood); assay: Zymosan stimulated CD11b expression on granulocytes in human whole blood (WB assay); settings: read-out: IC90 inhibition of CD11b expression, total compound, geometric mean
[3] = Human PK prediction (allometry, IVIVE, mechanistic Vss)
pKa = assay type: physicochemical; settings: tertiary amine
human TNF [4] = molecular target: T1, human TNF (Homo sapiens, UniProt P01375); assay: TNF occupancy in zymosan activated human whole blood (ELISA, compound-bound/total TNF)
In vivo PK in rat = settings: male
[5] = system: free soluble TNF in human synovial tissue; assay: Quantitative systems pharmacology (QSP) model of TNF in synovial tissue; settings: across in vitro, in vivo and QSP systems
[6] = system: collagen-induced arthritis (CIA) model, hind-paw bone; assay: 3D volumetric micro-CT of limb bones from CIA model
human TNF [7] = molecular target: T1, human TNF; assay: Surface plasmon resonance binding of SAR441566 to TNF (Biacore T200); settings: SPR, average n = 4
[8] = molecular target: human membrane TNF (NSO-mTNFΔ1-12 cells) (Homo sapiens, UniProt P01375, DEL77-88); assay: Binding kinetics to membrane TNF on NSO-mTNFΔ1-12 cells (CA 1974 antibody, flow cytometry); settings: NSO-mTNF cells, 0.1 μM
Caco-2 TC7 cells = assay: Permeability and bi-directional flux/efflux in Caco-2 TC7 cells; assay type: in vitro ADME; settings: for Efflux: no inhibitor
[9] = system: collagen-induced arthritis (CIA) model; assay: Collagen-induced arthritis (CIA) model, therapeutic dosing; settings: for Percentage reduction in mean AUC cfb arthritis score vs vehicle: 20 days, combined 3 CIA studies
[10] = Fraction unbound in plasma by equilibrium dialysis
[11] = total compound (includes protein bound), geometric mean n = 12

In the case of `CN1C(=O)c2cccc(OC(F)F)c2[C@H]2C[C@@H]1c1nc3ccc(-c4cnc(C5(N)CCC5)nc4)cc3n12`, the AUCinf (In vivo PK in dog; IV, 1 mg/kg) is reported as 4,200 ng.h/ml, the CL (In vivo PK in dog; IV, 1 mg/kg) is reported as 4.45 mL/min/kg and the Cmax (In vivo PK in dog; IV, 1 mg/kg) is reported as 1,510 ng/ml. For the same compound, the “T1/2,z” value (In vivo PK in dog; IV, 1 mg/kg) was 7.00 h, the Vz (In vivo PK in dog; IV, 1 mg/kg) was 2.68 L/kg and the AUCinf (In vivo PK in dog; PO, 30 mg/kg) was 131 000 ng.h/ml. For the same compound, the Cmax (In vivo PK in dog; PO, 30 mg/kg) was 6,920 ng/ml, the tmax (In vivo PK in dog; PO, 30 mg/kg) was 2 h and the Bioavailability (In vivo PK in dog; PO, 30 mg/kg) was 108 ^b %. The AUCinf (In vivo PK in dog; PO, 100 mg/kg) was 258 000 ng.h/ml, the Cmax (In vivo PK in dog; PO, 100 mg/kg) was 6,320 ng/ml and the tmax (In vivo PK in dog; PO, 100 mg/kg) was 7 h. The Bioavailability (In vivo PK in dog; PO, 100 mg/kg) was 62 ^b %, the “Clearance (in vitro intrinsic)” value (human hepatocytes) was 8.0 µl/min/10^6 cells and the AUCinf ([1]; IV, 1 mg/kg) was 2,970 ng.h/ml. The CL ([1]; IV, 1 mg/kg) was 5.92 mL/min/kg, the Cmax ([1]; IV, 1 mg/kg) was 774 ng/mL and the “T1/2,z” value ([1]; IV, 1 mg/kg) was 6.66 h. For the same compound, the Vz ([1]; IV, 1 mg/kg) was 2.59 L/kg, the AUCinf ([1]; PO, 3 mg/kg) was 6,620 ng.h/ml and the Cmax ([1]; PO, 3 mg/kg) was 609 ng/mL. For the same compound, the tmax ([1]; PO, 3 mg/kg) was 2 h, the Bioavailability ([1]; PO, 3 mg/kg) was 67 ^b % and the AUCinf ([1]; PO, 10 mg/kg) was 20 000 ng.h/ml. The Cmax ([1]; PO, 10 mg/kg) was 1,250 ng/ml, the tmax ([1]; PO, 10 mg/kg) was 6 h and the Bioavailability ([1]; PO, 10 mg/kg) was 68 ^b %. For the same compound, the AUCinf ([1]; PO, 20 mg/kg) was 45 200 ng.h/ml, the Cmax ([1]; PO, 20 mg/kg) was 2,490 ng/ml and the tmax ([1]; PO, 20 mg/kg) was 8 h. For the same compound, the Bioavailability ([1]; PO, 20 mg/kg) was 77 ^b %, the AUCinf ([1]; PO, 100 mg/kg) was 107 000 ng.h/ml and the Cmax ([1]; PO, 100 mg/kg) was 3,640 ng/ml. For the same compound, the tmax ([1]; PO, 100 mg/kg) was 6 h, the Bioavailability ([1]; PO, 100 mg/kg) was 36 ^b % and the IC90 [2] was 163 nM. The human hepatic clearance ([3]; in vitro-in vivo extrapolation with correction for albumin binding) was 7 mL/min/kg, the human hepatic clearance ([3]; in vitro-in vivo extrapolation without correction for albumin binding) was 13.5 mL/min/kg and the “predicted human Vss” value ([3]; simple three-species allometry) was 6.4 L/kg. The “predicted total human i.v. clearance” value ([3]; simple three-species allometry) was 6.67 mL/min/kg, the pKa (pKa) was 8.6 and the “OCC50 (50% TNF occupancy)” value (human TNF [4]; [11]) was 14.3 nM. The “OCC90 (90% TNF occupancy)” value (human TNF [4]; [11]) was 64.3 nM, the TNF occupancy plateau (human TNF [4]; zymosan-stimulated whole blood plasma) was “around 100%” and the AUCinf (In vivo PK in rat; IV, 1 mg/kg) was 731 ng·h/mL. The CL (In vivo PK in rat; IV, 1 mg/kg) was 23 mL/min/kg, the Cmax (In vivo PK in rat; IV, 1 mg/kg) was 424 ng/mL and the “T1/2,z” value (In vivo PK in rat; IV, 1 mg/kg) was 2.1 h. For the same compound, the Vz (In vivo PK in rat; IV, 1 mg/kg) was 4.1 L/kg, the AUCinf (In vivo PK in rat; PO, 3 mg/kg) was 573 ng·h/mL and the Bioavailability (In vivo PK in rat; PO, 3 mg/kg) was 26%. For the same compound, the Cmax (In vivo PK in rat; PO, 3 mg/kg) was 73.6 ng/mL, the tmax (In vivo PK in rat; PO, 3 mg/kg) was 4 h and the “predicted target range free Cav” value [5] was 8 to 24 nM. For the same compound, the “bone volume fraction (BV/TV, %) of hind-paws compared to vehicle group” value ([6]; 10 mg/kg BID) was “significantly higher”, the “bone volume fraction (BV/TV, %) of hind-paws compared to vehicle group” value ([6]; 30 mg/kg BID) was “significantly higher” and the Kd (human TNF [7]) was 15.1 nM. The ka (human TNF [7]) was 1,471 M^−1s^−1, the t1/2 (human TNF [7]) was 9.0 h and the “TNF-compound complex formation on cell surface compared to similar compounds of the same series” value [8] was “fastest”. For the same compound, the Efflux (Caco-2 TC7 cells; BSA 0.5%/0.5% pH 7.4/7.4, 1 μM) was 208 nM/s, the Efflux (Caco-2 TC7 cells; BSA 0.5%/0.5% pH 7.4/7.4, 20 μM) was 64.8 nM/s and the Permeability (Caco-2 TC7 cells; Caco-2 TC7 cells validated for BCS classification, in the presence of a P-gp inhibitor) was “High”. The Permeability class (Caco-2 TC7 cells; Caco-2 TC7 cells, at saturating concentrations) was “high permeable”, the “Efflux transporter substrate property” value (Caco-2 TC7 cells; bi-directional flux/efflux with PSC833 (P-gp) and Ko-143 (BCRP) inhibitors) was “P-gp substrate” and the “Percentage reduction in mean AUC cfb arthritis score vs vehicle” value (shortened to “Percentage reduction”) ([9]; 1 mg/kg orally BID) was -15%. The “Percentage reduction” value ([9]; 3 mg/kg orally BID) was 12%, the “Probability of reducing AUC of disease score by more than 50%” value ([9]; 10 mg/kg BID, Bayesian analysis) was 0.87 and the “Percentage reduction” value ([9]; 10 mg/kg orally BID) was 68%. For the same compound, the “Probability of reducing AUC of disease score by 50%” value ([9]; 30 mg/kg BID, Bayesian analysis) was 0.99, the “Percentage reduction” value ([9]; 30 mg/kg orally BID) was 84% and the free average exposure ([9]; CIA mice, 10 mg/kg BID) was 24 nM. For the same compound, the “Fraction unbound human plasma” value [10] was 25%.
